Values of other authors, collected in patent US9155776B2, “Low frequency glatiramer acetate therapy” (Yeda Research & Development Co., Ltd., priority 2009, dated 2015).

System: patients receiving GA
Settings: cited from earlier work

## L-glutamic acid polymer with L-alanine, L-lysine, L-tyrosine, acetate (salt) [GA]
Clinical trials
  safety data accumulated in clinical trials: safe and well tolerated
Controlled studies, placebo injections 37%
  proportion of patients reporting injection-site reactions at least once: 70%
